{
  "source": "PubChem BioAssay AID1893",
  "about": "(NMMLSC, 2009)",
  "note": "This is a selection; strong and weak results do not stand in their true shares. The source made the active and inactive calls. Cut-off read from the data, not from the text of the source: active = percent response mostly above about 71% (no sharp cut-off); inactive = mostly below about 38%.",
  "data": [
    {"tested_on": "MEKK2 (MAP3K2) mutant PB1 domain binding MEK5, human", "assay": "mutant MEKK2 PB1-MEK5 binding signal retest – biochemical, single concentration, multiplex bead flow cytometry, confirmation (AID 1893);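 note: higher means compound restores mutant binding toward wildtype level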", "conditions": "Alexa488-MEK5 binding to MEKK2 mutant, at 10 µM, stronger effect = higher value", "values": [
      {"smiles": "CCN(CC)CCCOC(=O)C(O)(c1ccccc1)C1CCCCC1", "note": "(stereo not drawn)", "percent response": "inactive: 2%"},
      {"smiles": "CP(=O)(Nc1ccc(Cl)cc1)Oc1ccc(F)cc1", "note": "(stereo not drawn)", "percent response": "inactive: 8%"},
      {"smiles": "COc1ccccc1OP(C)(=O)Nc1c(C)cccc1C", "note": "(stereo not drawn)", "percent response": "inactive: 6%"}
    ]}
  ]
}
